# According to EP2597102A1:
# Legend:
# [1] = target: cynomolgus TNF (cynomolgus) (UniProt P79337); assay: SPR (BIAcore T200), construct captured by anti-human IgG Fc, antigen injected
# [2] = target: recombinant IL-17A (produced in-house in EBNA cells); assay: cell-based or functional assay
# [3] = target: recombinant TNF (Thermo Fisher); assay: cell-based or functional assay
# [4] = target: cynomolgus IL-17A (cynomolgus); assay: SPR (BIAcore T200), construct captured by anti-human IgG Fc, antigen injected
# human IL-17A (human) = human IL-17A (human) (UniProt Q16552); assay: as above
# human TNF (human) = human TNF (human) (UniProt P01375); assay: as above
Kd [1],koff [1],kon [1],Apparent IC50 for the inhibition of IL-17A/TNF-induced IL-6 production in Normal Human Dermal Fibroblasts [2],Apparent IC50 for the inhibition of IL-17A/TNF-induced IL-6 production in Normal Human Dermal Fibroblasts [3],Kd [4],koff [4],kon [4],Kd (human IL-17A (human)),koff (human IL-17A (human)),kon (human IL-17A (human)),Kd (human TNF (human)),koff (human TNF (human)),kon (human TNF (human)),Substance
0.1 nM,8.1e-05 s⁻¹,820000 M⁻¹ s⁻¹,0.021 nM,0.021 nM,–,–,–,–,–,–,–,–,–,"HC2C1 (bispecific construct, Fynomer 2C1 at the C-terminus of the heavy chain of the anti-TNF antibody) (bispecific antibody)"
–,–,–,–,–,0.448 nM,0.00016 s⁻¹,360000 M⁻¹ s⁻¹,0.252 nM,6.6e-05 s⁻¹,260000 M⁻¹ s⁻¹,0.07 nM,2.8e-05 s⁻¹,390000 M⁻¹ s⁻¹,"HC2C1 (bispecific construct, Fynomer 2C1 at the C-terminus of the heavy chain of the anti-TNF antibody) (bispecific antibody; other documents disagree on this pair)"
0.14 nM,–,630000 M⁻¹ s⁻¹,0.01 nM,0.01 nM,–,–,–,–,–,–,–,–,–,"LC2C1 (bispecific construct, Fynomer 2C1 at the C-terminus of the light chain of the anti-TNF antibody) (bispecific antibody)"
–,–,–,–,–,0.398 nM,–,120000 M⁻¹ s⁻¹,0.268 nM,–,230000 M⁻¹ s⁻¹,–,–,–,"LC2C1 (bispecific construct, Fynomer 2C1 at the C-terminus of the light chain of the anti-TNF antibody) (bispecific antibody; other documents disagree on this pair)"
